Measurements as given in ChEMBL document CHEMBL1139550, “1-Acyl-1H-[1,2,4]triazole-3,5-diamine analogues as novel and potent anticancer cyclin-dependent kinase inhibitors: synthesis and evaluation of biological activities” (J Med Chem, 2005).

Chains of the proteins cited; added tags and fusions are not shown. Residues count along the entry.
UniProt P06213, 28-758 limits assumed: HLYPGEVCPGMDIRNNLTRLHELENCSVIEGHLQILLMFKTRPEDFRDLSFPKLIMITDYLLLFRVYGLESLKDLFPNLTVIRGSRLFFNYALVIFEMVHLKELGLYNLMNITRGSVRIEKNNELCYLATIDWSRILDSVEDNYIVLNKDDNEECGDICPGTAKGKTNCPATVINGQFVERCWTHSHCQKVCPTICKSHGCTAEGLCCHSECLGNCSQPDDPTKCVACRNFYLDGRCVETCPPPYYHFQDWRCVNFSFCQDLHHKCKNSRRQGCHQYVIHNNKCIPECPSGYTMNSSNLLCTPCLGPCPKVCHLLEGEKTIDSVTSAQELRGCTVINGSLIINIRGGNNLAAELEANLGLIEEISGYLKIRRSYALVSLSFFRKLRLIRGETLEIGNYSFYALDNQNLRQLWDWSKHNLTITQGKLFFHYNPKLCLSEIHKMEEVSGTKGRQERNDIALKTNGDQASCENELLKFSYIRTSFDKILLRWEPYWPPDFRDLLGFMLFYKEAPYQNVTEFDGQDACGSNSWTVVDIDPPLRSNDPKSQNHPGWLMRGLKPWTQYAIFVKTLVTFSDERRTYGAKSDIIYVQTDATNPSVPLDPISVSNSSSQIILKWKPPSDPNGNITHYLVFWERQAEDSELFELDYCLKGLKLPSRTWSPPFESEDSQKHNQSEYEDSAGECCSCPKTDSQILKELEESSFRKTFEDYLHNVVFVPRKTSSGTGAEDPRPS
UniProt P06213, 763-1382 limits assumed: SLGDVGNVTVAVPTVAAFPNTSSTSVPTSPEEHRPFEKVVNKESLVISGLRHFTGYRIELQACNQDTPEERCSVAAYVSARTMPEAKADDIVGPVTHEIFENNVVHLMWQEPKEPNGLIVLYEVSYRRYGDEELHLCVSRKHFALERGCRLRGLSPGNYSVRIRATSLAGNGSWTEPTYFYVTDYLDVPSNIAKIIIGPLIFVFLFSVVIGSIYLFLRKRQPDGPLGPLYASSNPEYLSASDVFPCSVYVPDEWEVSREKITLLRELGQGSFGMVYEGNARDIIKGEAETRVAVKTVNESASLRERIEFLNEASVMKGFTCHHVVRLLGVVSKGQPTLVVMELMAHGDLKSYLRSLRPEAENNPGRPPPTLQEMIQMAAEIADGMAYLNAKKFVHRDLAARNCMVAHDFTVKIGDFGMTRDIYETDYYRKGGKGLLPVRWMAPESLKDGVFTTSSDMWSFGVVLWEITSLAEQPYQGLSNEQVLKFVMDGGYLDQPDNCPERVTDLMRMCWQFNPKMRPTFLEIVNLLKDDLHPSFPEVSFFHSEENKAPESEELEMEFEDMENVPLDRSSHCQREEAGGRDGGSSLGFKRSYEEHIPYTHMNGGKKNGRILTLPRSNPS

Molecular target: Insulin receptor (Homo sapiens, UniProt P06213)
Experiment: Inhibition of Insulin kinase-beta activity

Cc1ccc(F)c(C(=O)n2nc(Nc3ccc(S(N)(=O)=O)cc3)nc2C)c1F
IC50: 9.8 µM
